Assay results taken from patent US11253599B2, “Analgesic preparation with nanocarriers and use thereof” (dated 2022).

What was measured:
[1] = system: rats with unilateral hind paw inflammation; test: Side effects and toxicity after intravenous injection; conditions: i.v. 20 mg/kg
[2] = system: rats with unilateral hind paw inflammation; test: Paw pressure threshold (PPT) after intravenous injection, CFA hind paw inflammation
[3] = system: rats with unilateral hind paw inflammation; test: Paw pressure threshold (PPT) after intraplantar injection into the inflamed paw, CFA hind paw inflammation; conditions: i.pl. into inflamed paw, up to 200 μg (as free base), 5-15 min after injection, 4 days after CFA

SMILES: CN(C(=O)Cc1ccc(Cl)c(Cl)c1)[C@@H]1CCCC[C@H]1N1CCCC1
- Doubling of the dose to 20 mg/kg (tolerability) [1]: not possible for toxicological reasons
- Site of opioid receptor action (summary of analgesic efficacy) ([2]; i.v.): ubiquitously activates both peripheral and central opioid receptors
- PPT reached (upper limit) in both paws ([2]; i.v. 10 mg/kg): about 160 g
- Analgesic effect (PPT) in inflamed and non-inflamed paws ([2]; i.v., up to 10 mg/kg (as free base), from 10 minutes onward): dose-dependent analgesic effect in both the inflamed and non-inflamed paws
- PPT change (analgesia) in inflamed paws [3]: Dose-dependent PPT increase (analgesia)
